Source: article PMC9474883, “Novel tricyclic small molecule inhibitors of Nicotinamide N-methyltransferase for the treatment of metabolic disorders” (Scientific Reports, 2022)

Protein sequences, listed by entry. Tags and fused reporters are not part of them.
UniProt P40261, whole entry: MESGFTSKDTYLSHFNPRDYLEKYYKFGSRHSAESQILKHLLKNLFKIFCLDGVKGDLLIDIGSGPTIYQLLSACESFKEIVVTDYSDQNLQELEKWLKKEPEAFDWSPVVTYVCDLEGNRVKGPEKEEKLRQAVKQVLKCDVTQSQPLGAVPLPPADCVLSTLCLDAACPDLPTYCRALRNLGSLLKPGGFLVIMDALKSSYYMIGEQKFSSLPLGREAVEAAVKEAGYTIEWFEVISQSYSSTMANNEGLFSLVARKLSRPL
UniProt O55239, whole entry: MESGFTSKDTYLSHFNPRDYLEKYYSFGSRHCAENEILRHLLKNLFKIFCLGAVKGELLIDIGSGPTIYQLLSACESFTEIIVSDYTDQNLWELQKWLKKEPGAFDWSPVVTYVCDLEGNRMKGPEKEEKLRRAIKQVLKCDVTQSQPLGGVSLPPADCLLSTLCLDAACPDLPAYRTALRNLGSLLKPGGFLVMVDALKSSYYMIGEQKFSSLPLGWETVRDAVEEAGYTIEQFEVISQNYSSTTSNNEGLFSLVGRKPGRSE

What was measured:
[1] = biological target: human NNMT (Homo sapiens, UniProt P40261); experiment: Fluorescence based NNMT enzymatic assay (human); settings: read-out: hNNMT IC50; recombinant human NNMT, fluorescence of an MNA derivative; tested form: HBr
Method: (§1) NNMT activity was measured by a fluorescence based assay as previously described. Briefly, Inhibitors were screened using human, mouse and monkey NNMT enzymes at different concentrations. The final assay reaction mixture contained a buffer of 100 mM Tris Hcl pH 7.5, 0.04% BSA, 2 mM Dithiothreitol and 1% DMSO. A fluorescent product 2, 7- naphthyridine was measured in a Tecan reader with excitation at 375 nm and emission at 430 nm. The IC50 values were determined by fitting the inhibition curves (percent inhibition versus inhibitor concentration) using a four parametric sigmoidal dose response in graph pad prism.

[2] = biological target: mouse NNMT (Mus musculus, UniProt O55239); experiment: Fluorescence based NNMT enzymatic assay (mouse); settings: read-out: mNNMT IC50; recombinant mouse NNMT, fluorescence of an MNA derivative; tested form: HBr
Method: as §1

Row | SMILES | IC50 [1] [nM] | IC50 [2] [nM]
1 | CN1Cc2cc(F)c(F)c3c2N(CCO3)C1=N | > 1000 | 
2 | CCN1Cc2cc(F)cc3c2N(CC3)C1=N | 74 | > 3000
